The source of these data is article PMC2919064 (Journal of medicinal chemistry, 2010).

Sequences of proteins named here, by UniProt entry; tags and fusion partners are left off.
UniProt Q13547, whole entry: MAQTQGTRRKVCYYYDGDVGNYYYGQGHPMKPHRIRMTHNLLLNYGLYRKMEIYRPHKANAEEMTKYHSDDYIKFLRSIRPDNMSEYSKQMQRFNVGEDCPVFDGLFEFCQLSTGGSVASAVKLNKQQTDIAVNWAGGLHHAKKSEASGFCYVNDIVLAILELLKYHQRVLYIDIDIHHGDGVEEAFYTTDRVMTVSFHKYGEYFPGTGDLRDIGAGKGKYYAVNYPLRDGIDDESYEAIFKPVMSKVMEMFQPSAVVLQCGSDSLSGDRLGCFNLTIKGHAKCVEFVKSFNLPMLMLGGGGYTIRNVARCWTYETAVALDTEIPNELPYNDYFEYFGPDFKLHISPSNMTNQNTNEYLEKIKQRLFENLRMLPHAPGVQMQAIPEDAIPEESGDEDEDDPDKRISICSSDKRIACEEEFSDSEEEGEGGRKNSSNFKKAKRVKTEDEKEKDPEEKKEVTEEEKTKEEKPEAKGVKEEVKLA

Experiment [1] concerns the target HDAC1 (Homo sapiens, UniProt Q13547). In words: HDAC isoform inhibition assay.
Experiment [2] has as its target T1, HDAC6 (Homo sapiens, UniProt Q9UBN7).
T1 sequence (Q9UBN7 1-1215): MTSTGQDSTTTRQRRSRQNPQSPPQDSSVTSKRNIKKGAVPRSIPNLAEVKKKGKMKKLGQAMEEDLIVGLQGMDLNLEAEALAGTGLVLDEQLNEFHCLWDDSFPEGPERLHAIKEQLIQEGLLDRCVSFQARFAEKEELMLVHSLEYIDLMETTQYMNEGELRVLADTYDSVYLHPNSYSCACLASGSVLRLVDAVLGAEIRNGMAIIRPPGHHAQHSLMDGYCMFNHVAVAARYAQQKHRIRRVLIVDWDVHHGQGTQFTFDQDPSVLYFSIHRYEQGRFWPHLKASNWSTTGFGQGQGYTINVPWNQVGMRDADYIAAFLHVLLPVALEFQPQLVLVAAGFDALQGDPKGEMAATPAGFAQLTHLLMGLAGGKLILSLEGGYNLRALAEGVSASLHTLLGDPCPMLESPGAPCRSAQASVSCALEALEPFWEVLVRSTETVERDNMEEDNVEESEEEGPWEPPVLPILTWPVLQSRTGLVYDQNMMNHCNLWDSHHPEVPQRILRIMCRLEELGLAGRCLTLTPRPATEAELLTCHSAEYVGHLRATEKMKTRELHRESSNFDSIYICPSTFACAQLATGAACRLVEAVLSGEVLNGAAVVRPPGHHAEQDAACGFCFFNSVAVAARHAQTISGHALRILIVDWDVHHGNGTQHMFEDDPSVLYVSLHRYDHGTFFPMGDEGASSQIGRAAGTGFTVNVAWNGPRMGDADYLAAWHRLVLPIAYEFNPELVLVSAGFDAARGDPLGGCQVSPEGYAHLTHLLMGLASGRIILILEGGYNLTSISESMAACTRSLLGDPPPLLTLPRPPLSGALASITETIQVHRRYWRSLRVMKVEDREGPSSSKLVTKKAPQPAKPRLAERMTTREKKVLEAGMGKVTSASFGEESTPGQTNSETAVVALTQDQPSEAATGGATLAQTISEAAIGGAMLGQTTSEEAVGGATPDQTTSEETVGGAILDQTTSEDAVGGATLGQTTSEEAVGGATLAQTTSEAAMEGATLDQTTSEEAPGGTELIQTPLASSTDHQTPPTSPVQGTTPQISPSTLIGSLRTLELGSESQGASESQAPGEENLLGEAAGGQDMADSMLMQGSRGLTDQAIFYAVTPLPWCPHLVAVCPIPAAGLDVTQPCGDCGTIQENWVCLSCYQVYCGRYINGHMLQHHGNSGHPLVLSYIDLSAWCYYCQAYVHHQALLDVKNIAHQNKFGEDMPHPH
Kind of experiment: HDAC isoform inhibition assay.

Each structure is given as a SMILES string.

As to `Nc1cccc(-n2cc(-c3cccc(NC(=O)CCCCCCC(=O)NO)c3)nn2)c1`, the IC50 in experiment [1] came to 1.01 nM; in experiment [2], 2.52 nM.
